Reference: paper PMC4926433, “Isoquercitrin Esters with Mono- or Dicarboxylic Acids: Enzymatic Preparation and Properties” (International Journal of Molecular Sciences, 2016)

Test: Partition coefficient (log P) in octan-1-ol/phosphate buffer pH 7.4
Details: octan-1-ol/phosphate buffer pH 7.4, 25 °C
Method: The hydrophobicity of the prepared compounds was determined by the measurement of partition coefficient P in a mixture of two immiscible phases—octan-1-ol and 6.6 mM phosphate buffer pH 7.4 to simulate physiological conditions. Before the use, octan-1-ol was stirred with the buffer for 16 h at 25 °C to achieve saturation of both phases, which were then separated.
Then, 150 µL of the stock solutions were mixed with 150 µL of the respective immiscible phase in microcentrifuge tubes (1.5 mL) and stirred (750 rpm) for 2 h at 25 °C in triplicates. Phases were separated and the solute concentration in each phase was determined in 96-well microtitration plates using Sunrise™ spectrophotometer (Schoeller Instruments, Prague, Czech Republic) at 400 nm. Log P was calculated as follows: log Poct/buffer = log([A]octan-1-ol/[A]buffer).

Substance: quercetin [reference compound]
- log P: 1.94
